# Source: article PMC8842224 (2022)
# By UniProt entry, the sequences of proteins in these tests, tags left out.
# UniProt P0DMS8, whole entry: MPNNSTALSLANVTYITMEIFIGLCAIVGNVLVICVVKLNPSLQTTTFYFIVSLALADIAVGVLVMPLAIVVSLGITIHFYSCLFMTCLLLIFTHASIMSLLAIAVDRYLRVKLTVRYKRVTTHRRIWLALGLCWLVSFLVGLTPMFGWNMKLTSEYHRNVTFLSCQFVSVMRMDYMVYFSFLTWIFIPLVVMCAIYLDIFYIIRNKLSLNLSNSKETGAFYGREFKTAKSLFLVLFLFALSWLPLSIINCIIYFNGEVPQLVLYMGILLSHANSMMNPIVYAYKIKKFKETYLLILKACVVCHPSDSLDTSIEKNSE
# UniProt P30542, whole entry: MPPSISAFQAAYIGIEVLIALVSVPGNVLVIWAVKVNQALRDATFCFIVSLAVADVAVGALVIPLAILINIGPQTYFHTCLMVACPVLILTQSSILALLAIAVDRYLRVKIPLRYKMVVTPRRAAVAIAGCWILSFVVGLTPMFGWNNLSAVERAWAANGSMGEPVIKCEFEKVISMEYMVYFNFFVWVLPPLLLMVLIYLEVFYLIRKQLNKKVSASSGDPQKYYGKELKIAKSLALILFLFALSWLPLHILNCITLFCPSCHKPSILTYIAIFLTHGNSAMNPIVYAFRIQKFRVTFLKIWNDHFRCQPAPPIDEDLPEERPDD
# Read-outs that look alike come from different tables or passages of the source.
# Tests used:
# [1] = molecular target: human A2AAR (Homo sapiens, UniProt P29274); settings: [3H]ZM241385, human HeLa cells, n = 2
# [2] = molecular target: human A3AR (Homo sapiens, UniProt P0DMS8); assay: biochemical; settings: 3 h, read-out: hA3 percentage displacement of specific binding at 1 μM
# [3] = molecular target: T1, human A2BAR (Homo sapiens, UniProt P29275); assay: biochemical; settings: read-out: hA2B percentage displacement of specific binding at 1 μM
# T1 sequence (P29275 1-332): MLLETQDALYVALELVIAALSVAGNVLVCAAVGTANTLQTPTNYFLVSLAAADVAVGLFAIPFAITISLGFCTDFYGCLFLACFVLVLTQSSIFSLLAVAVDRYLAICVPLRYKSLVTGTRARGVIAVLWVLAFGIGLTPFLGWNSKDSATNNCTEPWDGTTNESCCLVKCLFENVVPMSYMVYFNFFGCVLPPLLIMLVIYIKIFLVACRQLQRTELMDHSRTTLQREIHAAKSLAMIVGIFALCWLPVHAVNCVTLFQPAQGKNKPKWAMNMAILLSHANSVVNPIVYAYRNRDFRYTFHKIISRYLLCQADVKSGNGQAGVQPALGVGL
# [4] = molecular target: human A1AR (Homo sapiens, UniProt P30542)
Compound,hA2A percentage displacement of specific binding at 1 μM [1],inhibition at 1 µM [2],inhibition at 1 µM [3],Exp relative binding affinity (ΔΔGbind) ([4]; Lig 2 relative to Lig 1 = 19a),A1AR selectivity [4],Exp relative binding affinity (ΔΔGbind) ([4]; Lig 2 relative to Lig 1 = 19v),Exp relative binding affinity (ΔΔGbind) ([4]; Lig 2 relative to Lig 1 = 19d),Exp relative binding affinity (ΔΔGbind) ([4]; Lig 2 relative to Lig 1 = 19ad)
N#Cc1c(-c2ccccc2)nc(N)nc1-c1ccc(Cl)cc1Cl [18p],29%,7%,2%,,,,,
N#Cc1c(-c2ccccc2)nc(N)nc1-c1cc(F)cc(F)c1 [18r],24%,1%,1%,,,,,
N#Cc1c(-c2ccccc2)nc(Nc2ccccc2)nc1-c1ccc(O)cc1 [19aa],9%,1%,1%,,,,,
CNc1nc(-c2ccccc2)c(C#N)c(-c2ccc(OC)cc2)n1 [19ab],6%,,1%,"1,09 kcal/mol",,,,
CNc1nc(-c2ccccc2)c(C#N)c(-c2ccc(F)cc2F)n1 [19af],,2%,3%,,> 1000 fold,-0.02 kcal/mol,-0.16 kcal/mol,
N#Cc1c(-c2ccccc2)nc(Nc2ccccc2)nc1-c1ccc(F)cc1F [19ag],2%,29%,2%,,,,,
CNc1nc(-c2ccccc2)c(C#N)c(-c2cc(F)cc(F)c2)n1 [19ah],1%,2%,15%,,,,,
CNc1nc(-c2ccccc2)c(C#N)c(-c2cc(Cl)cc(Cl)c2)n1 [19aj],2%,2%,1%,"0,64 kcal/mol",> 1000 fold,,,
CCNc1nc(-c2ccccc2)c(C#N)c(-c2cc(Cl)cc(Cl)c2)n1 [19ak],16%,1%,1%,,,,,
CNc1nc(-c2ccccc2)c(C#N)c(-c2cccs2)n1 [19av],25%,1%,9%,,,,,
CNc1nc(-c2ccccc2)c(C#N)c(-c2ccoc2)n1 [19ax],23%,,1%,4.14 kcal/mol,,,,3.48 kcal/mol
CNc1nc(-c2ccccc2)c(C#N)c(-c2ccsc2)n1 [19az],26%,1%,51%,,,,,
CNc1nc(-c2ccccc2)c(C#N)c(-c2ccncc2)n1 [19bb],5%,1%,12%,,,,,
N#Cc1c(-c2ccccc2)nc(Nc2ccccc2)nc1-c1ccncc1 [19bc],17%,12%,18%,,,,,
CNc1nc(-c2ccccc2)c(C#N)c(-c2cccnc2)n1 [19bd],19%,1%,13%,,,,,
N#Cc1c(-c2ccccc2)nc(Nc2ccccc2)nc1C1CCCCC1 [19bh],1%,3%,6%,,,,,
CNc1nc(-c2cccc(Cl)c2)c(C#N)c(-c2cccc(Cl)c2)n1 [19bi],3%,12%,1%,,,,,
N#Cc1c(-c2cccc(Cl)c2)nc(Nc2ccccc2)nc1-c1cccc(Cl)c1 [19bj],12%,16%,2%,,,,,
CNc1nc(-c2cccc(Cl)c2)c(C#N)c(-c2cc(Cl)cc(Cl)c2)n1 [19bk],1%,11%,4%,,,,,
N#Cc1c(-c2cccc(Cl)c2)nc(Nc2ccccc2)nc1-c1cc(Cl)cc(Cl)c1 [19bl],4%,9%,1%,,,,,
CNc1nc(-c2ccc(OC)cc2)c(C#N)c(-c2ccc(OC)cc2)n1 [19bm],2%,23%,7%,,,,,
N#Cc1c(-c2ccccc2)nc(Nc2ccccc2)nc1-c1ccccc1Cl [19g],5%,1%,14%,,,,,
COc1ccccc1-c1nc(Nc2ccccc2)nc(-c2ccccc2)c1C#N [19i],2%,9%,5%,,,,,
CNc1nc(-c2ccccc2)c(C#N)c(-c2ccc(Br)cc2)n1 [19x],3%,2%,8%,,,,,
N#Cc1c(-c2ccccc2)nc(Nc2ccccc2)nc1-c1ccc(Br)cc1 [19y],8%,43%,1%,,,,,
CNc1nc(-c2ccccc2)c(C#N)c(-c2ccc(O)cc2)n1 [19z],7%,8%,2%,,,,,
CN(C)c1nc(-c2ccccc2)c(C#N)c(-c2ccccc2)n1 [20a],1%,9%,3%,,,,,
CN(C)c1nc(-c2ccccc2)c(C#N)c(-c2ccc(F)cc2)n1 [20c],2%,1%,4%,,,,,
